This is an account of results in ChEMBL document CHEMBL1149528, “4-Phenyl-4-[1H-imidazol-2-yl]-piperidine derivatives as non-peptidic selective delta-opioid agonists with potential anxiolytic/antidepressant properties. Part 2” (Bioorg Med Chem Lett, 2007).

By UniProt entry, the sequences of proteins in these tests, tags left out. Where a name states a change or a piece, a line headed by the entry shows the natural chain unless it says otherwise.
UniProt P41145: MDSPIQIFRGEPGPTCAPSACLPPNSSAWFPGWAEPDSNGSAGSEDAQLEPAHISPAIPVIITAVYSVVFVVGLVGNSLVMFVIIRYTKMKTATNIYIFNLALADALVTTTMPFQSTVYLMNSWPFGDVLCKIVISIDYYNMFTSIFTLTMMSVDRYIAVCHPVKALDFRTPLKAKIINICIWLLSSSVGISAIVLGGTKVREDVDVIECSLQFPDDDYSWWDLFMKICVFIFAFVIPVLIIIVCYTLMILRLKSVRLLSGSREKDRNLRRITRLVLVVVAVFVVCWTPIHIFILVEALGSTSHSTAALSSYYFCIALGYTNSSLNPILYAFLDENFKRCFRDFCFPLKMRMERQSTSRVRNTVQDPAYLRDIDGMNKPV
UniProt P41143, whole entry: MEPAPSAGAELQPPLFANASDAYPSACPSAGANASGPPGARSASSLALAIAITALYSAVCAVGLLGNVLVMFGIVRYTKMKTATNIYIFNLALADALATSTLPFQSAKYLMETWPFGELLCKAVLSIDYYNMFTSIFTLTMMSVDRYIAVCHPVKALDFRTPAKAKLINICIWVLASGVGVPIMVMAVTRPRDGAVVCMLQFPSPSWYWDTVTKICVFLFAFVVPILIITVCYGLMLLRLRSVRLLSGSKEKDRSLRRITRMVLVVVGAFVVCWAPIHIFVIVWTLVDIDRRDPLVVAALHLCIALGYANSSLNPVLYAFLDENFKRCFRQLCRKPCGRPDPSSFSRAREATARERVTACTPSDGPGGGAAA

The target in the first assay is Kappa-type opioid receptor (Homo sapiens, UniProt P41145). The assay is described as follows: Displacement of [3H]U-69593 from cloned human kappa opioid receptor. (In general: Loss of bound radioactivity is the signal in a displacement assay; it reports binding, not function.)
Regarding `CCOC(=O)N1CCC(c2ccccc2)(c2nccn2Cc2ccccc2)CC1`, the Ki (commonly a dissociation constant, usually derived from enzyme kinetics or from competition with a known ligand) was 171 nM.

A further assay concerns the target Delta-type opioid receptor (Homo sapiens, UniProt P41143). Description: Displacement of [3H]DPDPE from cloned human delta opioid receptor.
On to `CCOC(=O)N1CCC(c2ccccc2)(c2nccn2Cc2ccc(OC)cc2)CC1`, for which the inhibition constant Ki is 12 nM.
`CCOC(=O)N1CCC(c2ccccc2)(c2nccn2Cc2cccc(F)c2)CC1` registered a Ki of 5.9 nM.
On the same count and under the same terms, then `COCC(=O)N1CCC(c2ccccc2)(c2nccn2Cc2ccc(C(=O)OC)cc2)CC1`, with 5.9 nM.
On the same count and under the same terms, then `CC(=O)N1CCC(c2ccccc2)(c2nccn2Cc2ccccc2)CC1`, with 37 nM; and `CCC(=O)N1CCC(c2ccccc2)(c2nccn2Cc2ccccc2)CC1`, with 29 nM; and `COC(=O)c1ccc(Cn2ccnc2C2(c3ccccc3)CCN(C(=O)c3ccccc3)CC2)cc1`, with 0.93 nM.
On to `CC(C)(C)C(=O)N1CCC(c2ccccc2)(c2nccn2Cc2ccccc2)CC1`, for which the affinity, expressed as Ki, was 37 nM.
For `O=C(Cc1ccccc1)N1CCC(c2ccccc2)(c2nccn2Cc2ccccc2)CC1`, the Ki amounted to 23 nM.
Still for that read-out and setting: to `O=C(c1ccccc1)N1CCC(c2ccccc2)(c2nccn2Cc2ccccc2)CC1` belongs 2.3 nM.
On the same count and under the same terms, then `COC(=O)N1CCC(c2ccccc2)(c2nccn2Cc2ccccc2)CC1`, with 19 nM; and `CCOC(=O)N1CCC(c2ccccc2)(c2nccn2Cc2ccccc2)CC1`, with 3.7 nM.
Consider `CCCCOC(=O)N1CCC(c2ccccc2)(c2nccn2Cc2ccccc2)CC1`, for which the Ki came to 9.3 nM.
The same measure, in the same setting: then `O=C(OCc1ccccc1)N1CCC(c2ccccc2)(c2nccn2Cc2ccccc2)CC1`, with 12 nM; and `CCOC(=O)N1CCC(c2ccccc2)(c2nccn2Cc2cccc(OC)c2)CC1`, with 29 nM; and `CCOC(=O)N1CCC(c2ccccc2)(c2nccn2Cc2ccc(O)cc2)CC1`, with 4.6 nM.
The molecule `CCOC(=O)N1CCC(c2ccccc2)(c2nccn2C(C)c2ccccc2)CC1` (stereo not given) yielded a Ki of 1.2 nM.
On the same count and under the same terms, then `CC(C)(C)OC(=O)N1CCC(c2ccccc2)(c2nccn2Cc2ccccc2)CC1`, with 9.3 nM; and `COCC(=O)N1CCC(c2ccccc2)(c2nccn2Cc2ccccc2)CC1`, with 7.4 nM; and `Cc1cc(C)cc(C(=O)N2CCC(c3ccccc3)(c3nccn3Cc3ccccc3)CC2)c1`, with 37 nM.
Same read-out and setting: then `CCOC(=O)N1CCC(c2ccccc2)(c2nccn2Cc2ccc(C(=O)OC)cc2)CC1`, with 0.74 nM.
Still for that read-out and setting: to `CCCOC(=O)N1CCC(c2ccccc2)(c2nccn2Cc2ccccc2)CC1` belongs 2.9 nM; to `CC(C)OC(=O)N1CCC(c2ccccc2)(c2nccn2Cc2ccccc2)CC1`, 1.8 nM.
On to `COCC(=O)N1CCC(c2ccccc2)(c2nccn2C(C)c2ccccc2)CC1` (stereo not given), for which the affinity corresponds to a Ki of 3.7 nM.
On the same count and under the same terms, to `CC(c1ccccc1)n1ccnc1C1(c2ccccc2)CCN(C(=O)c2ccccc2)CC1` (stereo not given) belongs 2.3 nM.
